From patent EP4831169A1, “NOVEL COMPOUND USED AS CBP/P300 INHIBITOR, AND PHARMACEUTICAL COMPOSITION FOR PREVENTING OR TREATING CANCER, INFLAMMATORY DISORDERS, OR AUTOIMMUNE DISEASES COMPRISING SAME AS ACTIVE INGREDIENT” (dated 2026) come the findings set out here.

Chains of the proteins cited; added tags and fusions are not shown. Residues count along the entry.
UniProt Q92793, 1085-1192 limits assumed: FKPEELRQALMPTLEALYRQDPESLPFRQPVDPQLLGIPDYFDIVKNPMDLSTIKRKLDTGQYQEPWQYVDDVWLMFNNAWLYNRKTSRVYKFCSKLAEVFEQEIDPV

One experiment deals with CBP BRD protein (Homo sapiens, UniProt Q92793). The experiment can be described thus: CBP bromodomain TR-FRET inhibitory activity assay. The settings on record: read-out: CBP BRD IC50, Table 3.
The next experiment has as its target BRD4 (BD1) protein (Homo sapiens, UniProt O60885). The experiment can be described thus: BRD4 bromodomain TR-FRET inhibitory activity assay. The settings on record: read-out: BRD4 (BD1) IC50, Table 4.

As to `Cn1cc(-c2cc3nc(C(C)(C)C)n(-c4cc(N5CC(F)(F)C5)c5c(c4)n(C)c(=O)n5C)c3cc2F)cn1`, the IC50 is less than 500 nM at CBP BRD protein and more than 5000 nM on BRD4 (BD1) protein.
For `Cc1nnc(-c2cc3nc(C(C)(C)C)n(-c4cc(N5CCOCC5)c5c(c4)n(C)c(=O)n5C)c3cc2F)o1` the same measures were less than 500 nM and more than 5000 nM.
Regarding `CC(=O)Nc1ccc(-c2cc3nc(C(C)(C)C)n(-c4cc(N5CC(C)(O)C5)c5c(c4)n(C)c(=O)n5C)c3cc2C(F)F)cc1`, the IC50 on CBP BRD protein was less than 500 nM; at BRD4 (BD1) protein, more than 5000 nM.
As to `COc1ccc(Oc2cc(-n3c(C(C)(C)C)nc4cc(-c5cnn(C)c5)c(C(F)F)cc43)cc3c2n(C)c(=O)n3C)cc1`, the IC50 on CBP BRD protein is less than 500 nM; at BRD4 (BD1) protein it was more than 5000 nM.
As for `CC(C)c1cc(-n2c(C(C)(C)C)nc3cc(-c4cnn(C)c4)c(C(F)(F)F)cc32)cc2c1n(C)c(=O)n2C`, the IC50 at CBP BRD protein was 500 to 5000 nM; at BRD4 (BD1) protein, more than 5000 nM.
For `Cn1cc(-c2cc3nc(-c4cncn4C)n(-c4cc(N5CCOCC5)c5c(c4)n(C)c(=O)n5C)c3cc2Cl)cn1` the same measures were less than 500 nM and 500 to 5000 nM.
For the compound `Cn1cc(-c2cc3nc(C(C)(C)C)n(-c4cc(N5CCOCC5)c5c(c4)n(C)c(=O)n5C)c3cc2Cl)cn1`, the IC50 is less than 500 nM at CBP BRD protein and more than 5000 nM on BRD4 (BD1) protein.
For `Cn1cc(-c2cc3nc(-c4cncn4C)n(-c4cc(N5CC(C)(O)C5)c5c(c4)n(C)c(=O)n5C)c3cc2OC(F)(F)F)cn1` the same measures were less than 500 nM and 500 to 5000 nM.
For `CN(C)c1cc2c(cc1-c1cnn(C)c1)nc(C(C)(C)C)n2-c1cc(N2CCOCC2)c2c(c1)n(C)c(=O)n2C` the same measures were less than 500 nM and 500 to 5000 nM.
With `Cc1ccn(-c2cc3nc(C(C)(C)C)n(-c4cc(N5CC(C)(O)C5)c5c(c4)n(C)c(=O)n5C)c3cc2C(F)F)n1`, the half-maximal inhibitory concentration (IC50) was less than 500 nM on CBP BRD protein and more than 5000 nM on BRD4 (BD1) protein.
Regarding `C#CC(C)(C)c1nc2cc(-c3cnn(C)c3)c(C#N)cc2n1-c1cc(C(C)C)c2c(c1)n(C)c(=O)n2C`, the results for the IC50 at CBP BRD protein and on BRD4 (BD1) protein were less than 500 nM and more than 5000 nM, respectively.
For `COC(C)(C)c1cc(-n2c(-c3cncn3C)nc3cc(-c4cnn(C)c4)c(F)cc32)cc2c1n(C)c(=O)n2C` the same measures were 500 to 5000 nM and more than 5000 nM.
For `Cn1cc(-c2cc3nc(C(C)(C)C)n(-c4cc(C5CCNCC5)c5c(c4)n(C)c(=O)n5C)c3cc2F)cn1` the same measures were less than 500 nM and more than 5000 nM.
For `Cc1cccc(-c2nc3cc(-c4cnn(C)c4)c(C(F)F)cc3n2-c2cc(N3CC(C)(O)C3)c3c(c2)n(C)c(=O)n3C)c1C` the same measures were less than 500 nM and 500 to 5000 nM.
As for `CC(C)Nc1cc(-n2c(C(C)(C)C)nc3cc(-c4cnn(C)c4)c(C#N)cc32)cc2c1n(C)c(=O)n2C`, the IC50 was less than 500 nM on CBP BRD protein and more than 5000 nM on BRD4 (BD1) protein.
`Cn1cc(-c2cc3nc(C(C)(C)C)n(-c4cc(N5CC(C)(O)C5)c5c(c4)n(C)c(=O)n5C)c3cc2O)cn1`: the IC50 on CBP BRD protein is less than 500 nM; at BRD4 (BD1) protein it was more than 5000 nM.
As for `Cn1cc(-c2cc3nc(-c4cncn4C)n(-c4cc(N5CCOCC5)c5c(c4)n(C)c(=O)n5C)c3cc2C(F)(F)F)cn1`, the figures for the IC50 on CBP BRD protein and at BRD4 (BD1) protein were less than 500 nM and more than 5000 nM, respectively.
Take `Cn1cncc1-c1nc2cc(-c3cn[nH]c3)c(F)cc2n1-c1cc(N2CCOCC2)c2c(c1)n(C)c(=O)n2C`: the results for the IC50 on CBP BRD protein and at BRD4 (BD1) protein were less than 500 nM and more than 5000 nM, respectively.
For `Cn1c(=O)n(C)c2c(N3CCOCC3)cc(-n3c(C(C)(C)C)nc4cc(C(=O)O)c(F)cc43)cc21` the same measures were 500 to 5000 nM and more than 5000 nM.
For `CC(C)c1cc(-n2c(-c3cncn3C)nc3cc(-c4cnn(C)c4)c(C#N)cc32)cc2c1n(C)c(=O)n2C` the same measures were less than 500 nM and more than 5000 nM.
The like results for `Cn1cc(-c2cc3nc(-c4cncn4C)n(-c4cc(C(C)(C)O)c5c(c4)n(C)c(=O)n5C)c3cc2F)cn1` were, in that order, 500 to 5000 nM and more than 5000 nM.
Consider `C[C@@H]1CCN1c1cc(-n2c(C(C)(C)C)nc3cc(-c4cnn(C)c4)c(F)cc32)cc2c1n(C)c(=O)n2C`, for which the IC50 on CBP BRD protein was less than 500 nM; on BRD4 (BD1) protein it was more than 5000 nM.
In the case of `Cn1cc(-c2cc3nc(-c4cncn4C)n(-c4cc(N5CC(O)C5)c5c(c4)n(C)c(=O)n5C)c3cc2F)cn1`, the figures for the IC50 at CBP BRD protein and at BRD4 (BD1) protein were less than 500 nM and 500 to 5000 nM, respectively.
For `CC(C)Nc1cc(-n2c(C(C)(C)C#N)nc3cc(-c4cnn(C)c4)c(F)cc32)cc2c1n(C)c(=O)n2C` the same measures were less than 500 nM and more than 5000 nM.
The like results for `Cn1cc(-c2cc3nc(C(C)(C)C)n(-c4cc(N5CCOCC5)c5c(c4)n(C)c(=O)n5C)c3cc2NC(=O)OC(C)(C)C)cn1` were, in that order, more than 5000 nM and more than 5000 nM.
Consider `CC(C)Nc1cc(-n2c(-c3cncn3C)nc3cc(-c4cnn(C)c4)c(C(F)F)cc32)cc2c1n(C)c(=O)n2C`, for which the IC50 was less than 500 nM on CBP BRD protein and more than 5000 nM at BRD4 (BD1) protein.
For `Cn1cc(-c2cc3nc(-c4cncn4C)n(-c4cc(N5CCC5)c5c(c4)n(C)c(=O)n5C)c3cc2C(F)(F)F)cn1` the same measures were less than 500 nM and 500 to 5000 nM.
In the case of `COCCNc1cc(-n2c(-c3cncn3C)nc3cc(-c4cnn(C)c4)c(F)cc32)cc2c1n(C)c(=O)n2C`, the IC50 at CBP BRD protein was 500 to 5000 nM; on BRD4 (BD1) protein, more than 5000 nM.
As to `Cn1cc(-c2cc3nc(C(C)(C)C)n(-c4cc(OC5CCN(C(=O)OC(C)(C)C)CC5)c5c(c4)n(C)c(=O)n5C)c3cc2F)cn1`, the figures for the IC50 at CBP BRD protein and at BRD4 (BD1) protein were less than 500 nM and more than 5000 nM, respectively.
The like results for `Cc1ncc(-c2cc3nc(C(C)(C)C)n(-c4cc(N5CC(C)(O)C5)c5c(c4)n(C)c(=O)n5C)c3cc2OC(F)(F)F)s1` were, in that order, less than 500 nM and more than 5000 nM.
On to `CC(=O)Nc1ccc(-c2cc3nc(-c4cncn4C)n(-c4cc(N5CCCC5)c5c(c4)n(C)c(=O)n5C)c3cc2F)cc1`, for which the IC50 at CBP BRD protein is less than 500 nM; at BRD4 (BD1) protein it was 500 to 5000 nM.
The like results for `Cn1c(=O)n(C)c2c(N3CC(C)(O)C3)cc(-n3c(C(C)(C)C)nc4cc(-c5cnn(CCO)c5)c(C(F)F)cc43)cc21` were, in that order, less than 500 nM and more than 5000 nM.
For `CC(C)c1cc(-n2c(C3(C)COC3)nc3cc(-c4cnn(C)c4)c(F)cc32)cc2c1n(C)c(=O)n2C` the same measures were 500 to 5000 nM and more than 5000 nM.
For `Cn1cc(-c2cc3nc(C(C)(C)C)n(-c4cc(N5CCOCC5)c5c(c4)n(C)c(=O)n5C)c3cc2CF)cn1` the same measures were less than 500 nM and more than 5000 nM.
Turning to `Cn1cc(-c2cc3nc(-c4cncn4C)n(-c4cc(NC5CCCC5)c5c(c4)n(C)c(=O)n5C)c3cc2F)cn1`, the IC50 at CBP BRD protein was less than 500 nM; at BRD4 (BD1) protein it was more than 5000 nM.
For `Cn1cc(-c2cc3nc(-c4cncn4C)n(-c4cc(C5CCCCC5)c5c(c4)n(C)c(=O)n5C)c3cc2F)cn1` the same measures were less than 500 nM and more than 5000 nM.
For `Cn1cc(-c2cc3nc(-c4cncn4C)n(-c4cc(OC5COC5)c5c(c4)n(C)c(=O)n5C)c3cc2C(F)F)cn1` the same measures were less than 500 nM and more than 5000 nM.
Regarding `COC(=O)c1cc2nc(C(C)(C)C)n(-c3cc(N4CCOCC4)c4c(c3)n(C)c(=O)n4C)c2cc1F`, the values for the IC50 on CBP BRD protein and at BRD4 (BD1) protein were less than 500 nM and more than 5000 nM, respectively.
As for `COc1ccc(-c2cc(-n3c(C(C)(C)C)nc4cc(-c5cnn(C)c5)c(F)cc43)cc3c2n(C)c(=O)n3C)cc1`, the IC50 at CBP BRD protein was less than 500 nM; on BRD4 (BD1) protein, more than 5000 nM.
The like results for `COC1(C)CN(c2cc(-n3c(-c4cncn4C)nc4cc(-c5cnn(C)c5)c(F)cc43)cc3c2n(C)c(=O)n3C)C1` were, in that order, less than 500 nM and 500 to 5000 nM.
The like results for `Cc1ncc(-c2cc3nc(C(C)(C)C)n(-c4cc(C5CCOCC5)c5c(c4)n(C)c(=O)n5C)c3cc2C(F)F)s1` were, in that order, less than 500 nM and more than 5000 nM.
With `Cn1cc(-c2cc3nc(-c4cncn4C)n(-c4cc(-c5ccc(F)cc5)c5c(c4)n(C)c(=O)n5C)c3cc2F)cn1`, the results for the IC50 on CBP BRD protein and on BRD4 (BD1) protein were less than 500 nM and more than 5000 nM, respectively.
`Cn1cc(-c2cc3nc(C(C)(C)C)n(-c4cc(NCC(C)(O)CO)c5c(c4)n(C)c(=O)n5C)c3cc2C(F)F)cn1` (stereo not shown): the values for the IC50 on CBP BRD protein and on BRD4 (BD1) protein were less than 500 nM and more than 5000 nM, respectively.
The like results for `Cn1cc(-c2cc3nc(C(C)(C)C)n(-c4cc(N5CC(C)(O)C5)c5c(c4)n(C)c(=O)n5C)c3cc2Cl)cn1` were, in that order, less than 500 nM and 500 to 5000 nM.
For `Cn1cc(-c2cc3nc(-c4cncn4C)n(-c4cc(C5CCOCC5)c5c(c4)n(C)c(=O)n5C)c3cc2C(F)F)cn1` the same measures were less than 500 nM and more than 5000 nM.
For `Cn1cc(-c2cc3nc(C(C)(C)C)n(-c4cc(-c5ccncc5)c5c(c4)n(C)c(=O)n5C)c3cc2F)cn1` the same measures were less than 500 nM and more than 5000 nM.
For the compound `Cn1cc(-c2cc3nc(C(C)(C)C)n(-c4cc(OCC5COC5)c5c(c4)n(C)c(=O)n5C)c3cc2F)cn1`, the IC50 on CBP BRD protein was less than 500 nM; at BRD4 (BD1) protein, more than 5000 nM.
In the case of `Cn1cc(-c2cc3nc(-c4cncn4C)n(-c4cc(N5CC6(COC6)C5)c5c(c4)n(C)c(=O)n5C)c3cc2F)cn1`, the IC50 is less than 500 nM on CBP BRD protein and 500 to 5000 nM at BRD4 (BD1) protein.
On to `Cn1cc(-c2cc3nc(-c4cncn4C)n(-c4cc(C5CCNCC5)c5c(c4)n(C)c(=O)n5C)c3cc2F)cn1`, for which the IC50 was less than 500 nM on CBP BRD protein and more than 5000 nM at BRD4 (BD1) protein.
The like results for `Cc1ncc(-c2cc3nc(C(C)(C)C)n(-c4cc(N5CCOCC5)c5c(c4)n(C)c(=O)n5C)c3cc2F)o1` were, in that order, less than 500 nM and more than 5000 nM.
The like results for `COc1cc2c(cc1-c1cnn(C)c1)nc(C(C)(C)C)n2-c1cc(N2CC(C)(O)C2)c2c(c1)n(C)c(=O)n2C` were, in that order, less than 500 nM and 500 to 5000 nM.
Regarding `Cn1cc(-c2cc3nc(C(C)(C)C)n(-c4cc(N5CC(C)(O)C5)c5c(c4)n(C)c(=O)n5C)c3cc2F)cn1`, the IC50 was less than 500 nM on CBP BRD protein and more than 5000 nM on BRD4 (BD1) protein.
For `CCCOc1cc(-n2c(-c3cncn3C)nc3cc(-c4cnn(C)c4)c(F)cc32)cc2c1n(C)c(=O)n2C` the same measures were less than 500 nM and more than 5000 nM.

What is called IC50 is the midpoint of a concentration-inhibition curve.
